Experimental data as given in patent US6495584B1, “Use of 3-(1H-imidazol-4-ylmethyl)-indan-5-ol in the manufacture of a medicament for intraspinal, intrathecal or epidural administration” (Orion Corporation, priority 1998, dated 2002).

Conditions: hydrochloride salts
Method: The hydrochloride salts of the above compounds were shaken for 90 minutes in a separatory funnel at room temperature with equal volumes (1:1, v/v) of an organic phase (water saturated 1-octanol) and an aqueous solution (0.1 M HCI or 67 mM phosphate buffer pH 7.4), separating the two phases. The quantitations of the amounts of the studied compounds were performed by the RP-HPLC (reverse phase high pressure liquid chromatography) technique. […] As a mobile phase, methanol: 15 mM phosphate buffer pH2 at the ratio 50:50 (v/v) was used.
The partition coefficient (P) is a ratio of the equilibrium concentrations of a solute in a lipophilic environment (1-octanol) and water (P=coct/cwater). The logarithm of the partition coefficient (logP) is used as a lipophilicity parameter for a neutral molecule. D is the partition coefficient measured at a pH where the molecules are partly or totally ionized.

clonidine [Compound B, reference compound]
logD (pH 7.4) (1-octanol / 67 mM phosphate buffer pH 7.4, room temperature): 0.73 | logD (pH 1) (1-octanol / 0.1 M HCl, room temperature): −1.02
